The entries are a selection whose mix differs from that of the whole data set. Some salts or complexes appear as unconnected parts, following the source record. The source made the active and inactive calls. Rule as the data show it: active = inhibition above about 32%; inactive = the rest.

The term inhibition denotes the relative decrease from the control value, in per cent.

This test in a line: TEAD-YAP interaction inhibition, primary screen, TEAD-YAP interaction inhibitor project, luminescence, HEK-TIYL cells (AID 1259422).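 Also: 0% = median of test compound wells and 100% = reference inhibitor wells.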 The following applies: TEAD-Gal4/YAP UAS-luciferase luminescence, at 9.12 µM, hits give high values.
With `CP(=O)(Nc1ccc(Br)cc1)Oc1ccc(Cl)cc1` (centres undefined), the inhibition was inactive: 8.71%.

In the case of `CCOC(=O)C(CC)C1=NC(C)(C)Cc2ccccc21.O=[N+]([O-])c1cc([N+](=O)[O-])c(O)c([N+](=O)[O-])c1` (centres undefined), the inhibition is inactive: 0.92%.

Turning to `COc1ccccc1OP(C)(=O)Nc1c(C)cccc1C` (centres undefined), the inhibition is inactive: -20.1%.

With `CCN(CC)C(C)COC(=O)C(O)(c1ccccc1)c1ccccc1` (centres undefined), the inhibition was inactive: -11.9%.

Regarding `Cc1cc(N(C)C)cc[n+]1C(=O)N(C)C.c1ccc([B-](c2ccccc2)(c2ccccc2)c2ccccc2)cc1`, the inhibition is inactive: -9.27%.

Regarding `CCCOc1ccc(NP(C)(=O)Oc2ccccc2OC)cc1` (centres undefined), the inhibition was inactive: -2.13%.

Regarding `CP(=O)(Nc1cccc(Br)c1)Oc1ccc(Cl)cc1` (centres undefined), the inhibition is inactive: 14.5%.

With `Nc1c([N+](=O)[O-])cc([N+](=O)[O-])c(Nc2ccc(C(=O)O)cc2)c1[N+](=O)[O-]`, the inhibition was inactive: 14.4%.

In the case of `Cc1ccc(Cl)c(OP(C)(=O)Nc2ccccn2)c1` (centres undefined), the inhibition was inactive: -8.36%.

In the case of `O=[N+]([O-])Nc1nc(CCc2n[nH]c(N[N+](=O)[O-])n2)n[nH]1`, the inhibition is inactive: -2.68%.

On to `O=[N+]([O-])C12CC3(O)CC([N+](=O)[O-])(C1)CC([N+](=O)[O-])(C3)C2`, for which the inhibition was inactive: 0.06%.

For the molecule `COc1ccc(OP(C)(=O)Nc2cccc(Cl)c2C)cc1` (centres undefined), the inhibition is inactive: 3.85%.

In the case of `COc1ccccc1OP(C)(=O)Nc1cccc(Br)c1` (centres undefined), the inhibition was inactive: -1.05%.

`COc1ccccc1OP(C)(=O)Nc1ccc(Cl)cc1` (centres undefined): the inhibition was inactive: 4.3%.

Take `CC1=[N+](C)C(C)(C)Cc2ccccc21.O=[N+]([O-])c1cc([N+](=O)[O-])c(O)c([N+](=O)[O-])c1`: the inhibition was inactive: -8.13%.

With `CCOC(=O)c1ccc(NP(C)(=O)Oc2cc(C)cc(C)c2)cc1` (centres undefined), the inhibition is inactive: 5.41%.

In the case of `O=c1[nH]c2cc([N+](=O)[O-])c([N+](=O)[O-])c([N+](=O)[O-])c2[nH]1`, the inhibition is inactive: 5.26%.

In the case of `Cc1ccc(C)c(NP(C)(=O)Oc2ccccc2)c1` (centres undefined), the inhibition is inactive: 12.1%.

Regarding `O=[N+]([O-])c1cc2[nH]c3cc([N+](=O)[O-])c([N+](=O)[O-])cc3c2cc1[N+](=O)[O-]`, the inhibition was inactive: 14.4%.

As for `C=CCC1(CC=C)CCCCCCCCCCCN1.O=[N+]([O-])c1cc([N+](=O)[O-])c(O)c([N+](=O)[O-])c1`, the inhibition is inactive: 6.6%.

With `CP(=O)(Nc1cccc(Br)c1)Oc1ccccc1` (centres undefined), the inhibition is inactive: 5.44%.

Take `O=[N+]([O-])c1cnc(Nc2c([N+](=O)[O-])cc([N+](=O)[O-])cc2[N+](=O)[O-])c([N+](=O)[O-])c1`: the inhibition is inactive: 3.44%.

For `CC(=O)NC1(NC(C)=O)CC(C)N(C)CC1C.O=[N+]([O-])c1cc([N+](=O)[O-])c(O)c([N+](=O)[O-])c1` (centres undefined), the inhibition was inactive: -12.8%.

Regarding `CCN(CC)CCCOC(=O)C(O)(c1ccccc1)c1ccccc1`, the inhibition was inactive: -17.2%.

As for `Cc1ccc(NP(C)(=O)Oc2ccccc2)cc1` (centres undefined), the inhibition was inactive: -11.3%.

Regarding `Cc1ccc2c(c1)c1nc(C)sc1n2C.O=[N+]([O-])c1cc([N+](=O)[O-])c(O)c([N+](=O)[O-])c1`, the inhibition was inactive: 0.52%.

`Cc1cc(C)cc(OP(C)(=O)Nc2ccc(F)cc2)c1` (centres undefined): the inhibition was inactive: 3.35%.

With `CCN(CC)c1nc(C)cc(C)n1.O=[N+]([O-])c1cc([N+](=O)[O-])c(O)c([N+](=O)[O-])c1`, the inhibition was inactive: 3.13%.

For `CCOP(C)(=S)SCN(CC(=O)O)C(=O)OC` (centres undefined), the inhibition was inactive: -2.04%.

Regarding `O=[N+]([O-])c1c(NCCO)c([N+](=O)[O-])c(NCCO)c([N+](=O)[O-])c1NCCO`, the inhibition is inactive: -6.75%.

Regarding `CC(C)Oc1ccc(NP(C)(=O)Oc2ccc(Cl)cc2)cc1` (centres undefined), the inhibition is inactive: 5.36%.

Take `COc1ccccc1OP(C)(=O)Nc1ccc(Cl)cc1Cl` (centres undefined): the inhibition was inactive: -8.9%.

On to `CCCCOC(=O)Nc1c([N+](=O)[O-])cc([N+](=O)[O-])cc1[N+](=O)[O-]`, for which the inhibition is inactive: -13.6%.

For the molecule `O=C(O)C1(O)c2ccccc2-c2ccccc21`, the inhibition was inactive: 13.3%.

Turning to `CC(C)(C)c1ccc(OP(C)(N)=O)cc1` (centres undefined), the inhibition was inactive: -4.33%.

As for `CC(CCN([N+](=O)[O-])S(=O)(=O)c1ccc([N+](=O)[O-])cc1)([N+](=O)[O-])[N+](=O)[O-]`, the inhibition is inactive: -7.82%.

Take `CP1(=O)Oc2ccccc2Cc2ccccc2O1`: the inhibition was inactive: 5.36%.

Take `CCc1ccc(OP(C)(=O)Nc2ccccc2I)cc1` (centres undefined): the inhibition is inactive: 3.5%.

With `O=C(O)Cc1c([N+](=O)[O-])cc([N+](=O)[O-])cc1[N+](=O)[O-]`, the inhibition is inactive: 6.66%.

As for `O=C(O)C(O)(c1ccccc1)c1ccccc1`, the inhibition is inactive: -4.21%.

Consider `COc1ccccc1OP(C)(=O)Nc1ccc(C)cc1` (centres undefined), for which the inhibition was inactive: 0.25%.

Regarding `Cc1ccc(NP(C)(=O)Oc2ccccc2)c(C)c1` (centres undefined), the inhibition was inactive: -2.72%.

In the case of `CCOC(=O)c1ccc(NP(C)(=O)Oc2ccccc2)cc1` (centres undefined), the inhibition was inactive: -3.65%.

Consider `CP(=O)(O)OC(c1cccc(C(F)(F)F)c1)C(F)(F)F` (centres undefined), for which the inhibition is inactive: -0.26%.

On to `Cc1cc(C)cc(OP(C)(=O)NCc2ccccc2)c1` (centres undefined), for which the inhibition was inactive: -5.39%.

As to `COc1ccccc1OP(C)(=O)Nc1cc(Cl)ccc1C` (centres undefined), the inhibition is inactive: 12.8%.

In the case of `CN(C)CCOC(=O)C(O)(c1ccccc1)c1ccccc1`, the inhibition is inactive: -11.9%.

For `CP(=O)(O)OC(c1ccccc1)C(F)(F)F` (centres undefined), the inhibition is inactive: -8.98%.

Regarding `COc1ccc(NP(C)(=O)OC(c2ccccc2)C(F)(F)F)cc1` (centres undefined), the inhibition was inactive: -2.6%.

For `O=[N+]([O-])c1cc([N+](=O)[O-])c(CCO)c([N+](=O)[O-])c1`, the inhibition was inactive: -1.11%.

Turning to `CP(=O)(Nc1ccc(Cl)cc1)Oc1ccccc1` (centres undefined), the inhibition was inactive: 8.3%.

As for `CP(=O)(Nc1ccccc1Br)Oc1ccccc1` (centres undefined), the inhibition was inactive: -0.92%.

`CC(Nc1c([N+](=O)[O-])cc([N+](=O)[O-])cc1[N+](=O)[O-])c1ccc([N+](=O)[O-])cc1` (centres undefined): the inhibition was inactive: -13.1%.

Take `COc1ccccc1OP(C)(=O)Nc1ccccc1` (centres undefined): the inhibition was inactive: 10.8%.

In the case of `COc1cc2nc(C)sc2cc1NC(C)=O`, the inhibition was inactive: -13.3%.

As to `CCOP(C)(=S)SCC(=O)NC(Cc1ccccc1)C(=O)O` (centres undefined), the inhibition was inactive: 2.17%.

On to `COc1ccc(NP(C)(=O)Oc2ccc(C(C)C)cc2)cc1` (centres undefined), for which the inhibition was inactive: -1.5%.

On to `C=C(C)CC1NC2CC(C)(C)C1c1ccccc12.O=[N+]([O-])c1cc([N+](=O)[O-])c(O)c([N+](=O)[O-])c1` (centres undefined), for which the inhibition was inactive: -8.94%.

`CP(=O)(NC(=O)Nc1ccccc1)Oc1ccccc1` (centres undefined): the inhibition was inactive: 2.46%.

For `CP(=O)(O)OC(c1cccc(Cl)c1)C(F)(F)F` (centres undefined), the inhibition was inactive: 2.55%.

For the molecule `CCN(CC)P(=O)(c1c([N+](=O)[O-])cc([N+](=O)[O-])cc1[N+](=O)[O-])N(CC)CC`, the inhibition was inactive: -1.37%.

For `Cc1ccc(NP(C)(=O)Oc2ccccc2)cc1C` (centres undefined), the inhibition was inactive: 6.72%.

Turning to `CCOC(=O)c1ccc(NP(C)(=O)Oc2ccc(OC)cc2)cc1` (centres undefined), the inhibition was inactive: 9.12%.

With `Cc1cccc(NP(C)(=O)Oc2ccccc2)c1` (centres undefined), the inhibition is inactive: -2.92%.

On to `CP(=O)(O)OC(c1ccc(Cl)cc1)C(F)(F)F` (centres undefined), for which the inhibition is inactive: 7.77%.

Turning to `COc1ccccc1OP(C)(=O)Nc1cccc(Cl)c1C` (centres undefined), the inhibition is inactive: 7.61%.

As for `Cc1ccc(Cl)cc1OP(C)(=O)Nc1cccc2nsnc12` (centres undefined), the inhibition is inactive: -6.43%.

As for `CCOP(C)(=S)SCC(=O)NC(C)C(=O)O` (centres undefined), the inhibition was inactive: -15.1%.

As for `CP(=O)(Nc1ccccn1)Oc1ccc(Cl)cc1` (centres undefined), the inhibition was inactive: 0.12%.
